Assay results as given in ChEMBL document CHEMBL1126266, “Dopaminergic and serotonergic activities of imidazoquinolinones and related compounds” (J Med Chem, 1992).

By UniProt entry, the sequences of proteins in these tests, tags left out.
UniProt P61169, whole entry: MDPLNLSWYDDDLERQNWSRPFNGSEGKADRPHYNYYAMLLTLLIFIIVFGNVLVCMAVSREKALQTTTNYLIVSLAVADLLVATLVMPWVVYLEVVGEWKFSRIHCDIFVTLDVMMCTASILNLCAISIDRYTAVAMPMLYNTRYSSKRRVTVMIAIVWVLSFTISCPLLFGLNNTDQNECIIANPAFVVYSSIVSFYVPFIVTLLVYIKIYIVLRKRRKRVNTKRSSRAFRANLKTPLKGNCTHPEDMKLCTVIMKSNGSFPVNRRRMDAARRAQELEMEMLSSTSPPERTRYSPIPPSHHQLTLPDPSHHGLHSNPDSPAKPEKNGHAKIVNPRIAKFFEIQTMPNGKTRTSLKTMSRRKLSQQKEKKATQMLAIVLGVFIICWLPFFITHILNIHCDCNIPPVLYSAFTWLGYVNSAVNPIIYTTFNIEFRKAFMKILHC

Molecular target: D(2) dopamine receptor (Rattus norvegicus, UniProt P61169)
Assay: Ability to displace [3H]raclopride from dopamine receptor D2 in rat striatal homogenates.
How it was run: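 Rat striatal homogenate (1:300) incubated with [3H]raclopride (80 Ci/mmol) 1 h at room temperature. Filtered over PEI-pretreated filters, rinsed with 50 mM Tris pH 7.4, counted by liquid scintillation. Nonspecific binding with 1 μM haloperidol. IC50 by log-probit analysis from at least four concentrations in triplicate; Ki calculated from IC50.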

`CN1CCc2cccc3c2[C@H]1Cc1ccc(O)c(O)c1-3` [APOMORPHINE] gave a Ki of 46 nM.
